Results from article PMC8159961, “Exploring protein hotspots by optimized fragment pharmacophores” (Nature Communications, 2021).

How the values were obtained:
[1] = target: T1, SARS-CoV-2 3CLPro (Severe acute respiratory syndrome coronavirus 2, UniProt P0DTD1)
[2] = target: SARS-CoV-2 main protease (3CLPro) (Severe acute respiratory syndrome coronavirus 2, UniProt P0DTD1)
[3] = target: T1, SARS-CoV-2 3CLPro; assay: biochemical
[4] = target: T2, human thrombin (Homo sapiens, UniProt P00734); assay: Protease inhibitory assay, chromogenic substrate S-2238; type: biochemical; conditions: Thrombin primary screening; substrate 40 µM; cmpd conc 500 µM
T2 construct: human thrombin; purchased Sigma-Aldrich

[5] = target: T3, bovine factor Xa (Bos taurus, UniProt P00743); assay: Protease inhibitory assay, chromogenic substrate S-2222; type: biochemical; conditions: FactorXa primary screening; substrate 100 µM; cmpd conc 200 µM
T3 construct: bovine factor Xa, Chromogenix, 2 nkat/mL; purchased Chromogenix

Structure (SMILES) | %Inhibition ([1]; 0.00338702 µM) | %Inhibition ([1]; 0.0101611 µM) | %Inhibition ([1]; 0.0304832 µM) | %Inhibition ([1]; 0.274348 µM) | %Inhibition ([1]; 0.823045 µM) | %Inhibition ([1]; 22.2222 µM) | %Inhibition ([1]; 66.6667 µM) | %Inhibition ([1]; 200 µM) | X-ray screen result, binding site [2] | inhibition at 22.2222 µM [3] [%] | inhibition at 66.6667 µM [3] [%] | V0 / Vi [4] | V0 / Vi [5]
CS(=O)(=O)c1ccc(N2CCNCC2)cc1 [SX013] | -4.197% and -6.107% and -5.974% and -5.864% | -5.593% and -7.452% and -4.846% and -7.237% | -10.6845% and -8.536% and -5.692% and -6.7273% | -6.182% and -10.0851% and -8.698% and -8.556% | -4.569% and -9.299% and -9.042% and -8.39% | 40.6044% and 44.6499% and 43.8096% | 87.6737% and 78.2348% and 75.7593% | 68.5156% and 81.1843% and 90.4286% and 90.5201% | located in the active site | 41.1 | 68 |  | 
CS(=O)(=O)c1ccc(N2CCNCC2)cc1 [SX-B1] |  |  |  |  |  |  |  |  |  |  |  | 0.95 | 0.95

Values joined by “and” are separate entries in the source; they are usually repeats but may differ in a detail not shown here. Equal entries are not always repeated. Where two headings read alike, the source gives them in different places.
